{"source": "PubChem BioAssay AID1979", "about": "(Broad Institute, 2009)", "note": "The entries are a selection whose mix differs from that of the whole data set. Some results for these compounds are left out of this collection, so the calls shown say nothing about other tests. The source made the active and inactive calls.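 How the source made its calls: active means growth inhibition above about 58% in most replicates (limit read from the data, passing the limit was not always enough); inconclusive means exactly half the replicates above a set limit; inactive means most replicates below a set limit.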", "data": [{"experiment": "Candida growth reduction under fluconazole – CaCi-2 strain, Alamar Blue fluorescence, primary screen (AID 1979);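 further: all wells also contain fluconazole at 8 µg/ml as a sub-toxic cotreatment; 0% = median of DMSO wells and 100% = median of geldanamycin control wells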", "details": "C. albicans CaCi-2 (fluconazole-resistant clinical isolate) + fluconazole, 48 h, hits give high values, concentration not given here", "values": [{"smiles": "Cc1ccc(C(=O)NCC2(N3CCCCC3)CCCCC2)cc1", "growth inhibition": "inactive: -10.1%"}, {"smiles": "CC(C)N1C(=O)CC2(CCN(CCOC(=O)C(O)(c3ccccc3)c3ccccc3)CC2)C1=O", "growth inhibition": "inactive: 2.07%"}, {"smiles": "CCN(CC)CC(C)C(C)OC(=O)C(O)(c1ccccc1)c1ccccc1", "note": "(centres undefined)", "growth inhibition": "inactive: -6.12%"}, {"smiles": "COc1cc(SC)ccc1C(=O)NCC1(N(C)C)CCCCC1", "growth inhibition": "inactive: 14.4%"}, {"smiles": "CN1[C@@H]2CC[C@H]1CC(OC(=O)C(O)(c1ccccc1)c1ccccc1)C2", "note": "(some centres undefined)", "growth inhibition": "inactive: -9.56%"}, {"smiles": "O=C(NCC1(N2CCCCC2)CCCCC1)c1cc([N+](=O)[O-])ccc1Cl", "growth inhibition": "inactive: -14.1%"}, {"smiles": "Cc1cc(C(=O)NCC2(N3CCCCC3)CCCCC2)ccc1[N+](=O)[O-]", "growth inhibition": "inactive: -28.1%"}, {"smiles": "CCN1CCCC(OC(=O)C2(O)c3ccccc3C=Cc3ccccc32)C1", "note": "(centres undefined)", "growth inhibition": "inactive: 0.732%"}, {"smiles": "O=C(NCC1(N2CCCCC2)CCCCC1)c1cccc(Br)c1", "growth inhibition": "inactive: -4.34%"}, {"smiles": "COc1ccc(C(=O)NCC2(N(C)C)CCCCC2)cc1", "growth inhibition": "inactive: -18.1%"}, {"smiles": "C=CCN1CCN(CCOC(=O)C(O)(c2ccccc2)c2ccccc2)CC1", "growth inhibition": "inactive: -7.99%"}, {"smiles": "O=C(NCC1(N2CCCCC2)CCCCC1)c1cc(F)c(F)cc1Cl", "growth inhibition": "inactive: -4.95%"}, {"smiles": "Cc1ccccc1C(=O)NCC1(N2CCCCC2)CCCCC1", "growth inhibition": "inactive: -27.4%"}, {"smiles": "CN(C)C1CCCC1OC(=O)C(O)(c1ccccc1)c1ccccc1", "note": "(centres undefined)", "growth inhibition": "inactive: -28.6%"}, {"smiles": "CN(C)c1ccc(C(=O)NCC2(N(C)C)CCCCC2)cc1", "growth inhibition": "inactive: -6.24%"}, {"smiles": "O=C(NCC1(N2CCCCC2)CCCCC1)c1cccc(Cl)c1", "growth inhibition": "inactive: 1.12%"}, {"smiles": "COc1cccc(C(=O)NCC2(N3CCCCC3)CCCCC2)c1", "growth inhibition": "inactive: -13.1%"}, {"smiles": "COc1ccc(Cl)cc1C(=O)NCC1(N(C)C)CCCCC1", "growth inhibition": "inactive: 0.25%"}, {"smiles": "COc1cc(C(=O)NCC2(N(C)C)CCCCC2)c([N+](=O)[O-])cc1OC", "growth inhibition": "inactive: -10.1%"}, {"smiles": "CN(C)C1(CNC(=O)c2ccc(Br)cc2)CCCCC1", "growth inhibition": "inactive: -5.45%"}, {"smiles": "CN(C)c1cccc(C(=O)NCC2(N(C)C)CCCCC2)c1", "growth inhibition": "inactive: 0.229%"}, {"smiles": "CC(C)Oc1ccc(C(=O)NCC2(N(C)C)CCCCC2)cc1", "growth inhibition": "inactive: 1.11%"}, {"smiles": "COc1ccc(Br)c(C(=O)NCC2(N3CCCCC3)CCCCC2)c1", "growth inhibition": "inactive: -1.62%"}, {"smiles": "O=C(OC1CN2CCC1CC2)C(CO)(c1ccccc1)c1ccccc1", "note": "(centres undefined)", "growth inhibition": "inactive: -1.04%"}]}]}
